In PubChem BioAssay AID802 (Columbia University Molecular Screening Center, 2007) one finds inhibition data, which are given here for 33 compounds.

The entries are a selection whose mix differs from that of the whole data set. Active and inactive are the calls of the source.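 The calls were made as follows: active = inhibition above the batch mean plus 3 SD, with images confirmed as a hit by eye (cut at about 37% in these data); inconclusive = inhibition above that limit but hit not confirmed in images; inactive = inhibition not above that limit.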

The test in a line: inhibitors of TNFa-induced VCAM1 expression, primary screen, imaging, HUVEC, TNFa stimulus, immunofluorescence (AID 802).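 Also: 0% = TNF-stimulated DMSO wells and 100% = unstimulated control wells.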 The conditions noted are these: HUVEC TNFa-induced VCAM-1 immunofluorescence, high-content imaging; at 2 µM; stronger effect = higher value.
In the case of `CCC(C)N(CC(C)C)C(=S)SC(NC(C)=O)C(Cl)(Cl)Cl` (stereo not drawn), the inhibition (commonly the change of the read-out against control, counted positive when it falls) was inactive: 11.9%.
As for `O=C(COc1ccccc1)OC1CN2CCC1CC2` (stereo not drawn), the figure is inactive: 15.6%; as for `COP1(=S)c2c(C)nn(CCC#N)c2N=C(c2ccc(F)cc2)N1C` (stereo not drawn), inactive: 2.9%.
Turning to `CCN(CC)C(=S)SC(NC=O)C(Cl)(Cl)Cl` (stereo not drawn), the inhibition was inactive: 4%.
On to `ClCCSc1nnc(-c2cccnc2)o1`, for which the inhibition was inactive: 2.2%.
For `O=C(OC1CN2CCC1CC2)C12CC3CC(CC(C3)C1)C2` (stereo not drawn) the value was inactive: -4.6%.
For `Cc1cccc(OCC(=O)OC2CN3CCC2CC3)c1` (stereo not drawn), the inhibition is inactive: 3.9%.
Consider `O=[N+]([O-])c1ccc2c(c1)nnn2O`, for which the inhibition was inactive: 3.1%.
As to `CCOP1(=S)c2c(C)nn(CCC#N)c2N=C(c2ccc(F)cc2)N1C` (stereo not drawn), the inhibition was inactive: -4.1%.
For `CCOP1(=S)c2c(C)nn(CCC#N)c2N=C(c2ccccc2F)N1C` (stereo not drawn), the inhibition was inactive: 2%.
`Cc1ccc(OCC(=O)OC2CN3CCC2CC3)cc1` (stereo not drawn): the inhibition was inactive: 24.2%.
For the compound `O=P1(Nc2ccc(Br)cn2)COc2ccccc2OC1`, the inhibition was inactive: -2.8%.
Take `O=P1(Nc2ncccn2)COc2ccccc2OC1`: the inhibition is inactive: 1.1%.
Take `Cc1nn(-c2ccccc2)c2c1P(=O)(N1CCOCC1)N(C)C(c1ccccc1)=N2` (stereo not drawn): the inhibition was inactive: 9.3%.
As to `CC1(CBr)Cn2c(nc3ccccc3c2=O)S1` (stereo not drawn), the inhibition was inactive: -13.5%.
With `Clc1n[nH]nc1-c1nn[nH][15n]1`, the inhibition is inactive: 4.3%.
With `O=P1(Nc2ccccn2)COc2ccccc2OC1`, the inhibition was inactive: 6%.
`c1nnnn1CCn1cnnn1`: the inhibition was inactive: 12.7%.
As to `O=P(Nc1nccs1)(c1ccccc1)c1ccccc1`, the inhibition was active: 92.6%.
On to `O=C(OC1CN2CCC1CC2)c1cccc(Cl)c1` (stereo not drawn), for which the inhibition was inactive: -6.6%.
For the compound `COC(=O)c1cc2c(s1)N=C(c1ccccc1)N(C)P2(=O)N1CCOCC1` (stereo not drawn), the inhibition is inactive: 7.3%.
Turning to `CCC(=O)N1C2C3N(C(=O)CC)C1C1N(C(=O)CC)C(C(N1C(=O)CC)N3C(=O)CC)N2C(=O)CC`, the inhibition was inactive: -4.1%.
Regarding `CCOC(=O)NC(Sc1ccccc1)C(Cl)(Cl)Cl` (stereo not drawn), the inhibition was inactive: -1.3%.
For the compound `O=P1(Nc2nc3ccc(Cl)cc3s2)COc2ccccc2O1` (stereo not drawn), the inhibition was inactive: -6.8%.
With `CC(C)CC(=O)NC(Sc1ccc(Cl)cc1)C(Cl)(Cl)Cl` (stereo not drawn), the inhibition was inactive: 5.5%.
With `Cc1c2non([O-])c-2c(C)[n+](=O)[n+]1[O-]`, the inhibition is inactive: 15.1%.
For the compound `Oc1ccccc1CNc1ccccn1`, the inhibition was inactive: -21.3%.
Take `CN1CCCC(OC(=O)C(c2ccccc2)c2ccccc2)C1` (stereo not drawn): the inhibition is inactive: -15%.
`CCOP(=O)(Nc1ccccc1)OCC`: the inhibition was inactive: 8.2%.
Turning to `CC1CCN(C(=O)Oc2c(Cl)cc(Cl)c3cccnc23)CC1`, the inhibition was inactive: 7.8%.
In the case of `CC(=O)N1C2C3N(C(C)=O)C1C1N(C(C)=O)C(C(N1C(C)=O)N3C(C)=O)N2C(C)=O`, the inhibition was inactive: 5.5%.
As for `O=[N+]([O-])c1cccc2n[nH]nc12`, the figure is inactive: 19.4%.
For `CCc1nc2c(n1)c1c(non1O)c1c2no[n+]1[O-]`, the inhibition was inactive: 20.5%.
